The results in this text go back to ChEMBL document CHEMBL1129396, “2-amino-4-oxo-5-substituted-pyrrolo[2,3-d]pyrimidines as nonclassical antifolate inhibitors of thymidylate synthase” (J Med Chem, 1996).

By UniProt entry, the sequences of proteins in these tests, tags left out.
UniProt C3SWJ7, whole entry: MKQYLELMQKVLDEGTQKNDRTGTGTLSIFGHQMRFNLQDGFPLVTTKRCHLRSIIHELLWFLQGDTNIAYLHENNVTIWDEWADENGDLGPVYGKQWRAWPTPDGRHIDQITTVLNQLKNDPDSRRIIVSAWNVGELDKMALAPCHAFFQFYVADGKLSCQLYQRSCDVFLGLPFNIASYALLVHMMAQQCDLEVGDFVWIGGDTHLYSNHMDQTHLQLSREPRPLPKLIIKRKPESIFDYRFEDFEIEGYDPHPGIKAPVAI

This assay addresses Thymidylate synthase (Escherichia coli, UniProt C3SWJ7). Kind of assay: The inhibitory concentration of compound was evaluated on Escherichia coli thymidylate synthase.

With `Cc1nc2ccc(CN(C)c3ccc(C(=O)N[C@@H](CCC(=O)O)C(=O)O)s3)cc2c(=O)[nH]1` [RALTITREXED], the IC50 (usually the concentration that gives 50% inhibition) was 5.3 µM.
